Measurements reported in paper PMC2864113 (Bioorganic & medicinal chemistry letters, 2010).

The chains behind the UniProt entries cited, without tags or fusion partners. Residues count along the entry.
UniProt O42275, 24-633: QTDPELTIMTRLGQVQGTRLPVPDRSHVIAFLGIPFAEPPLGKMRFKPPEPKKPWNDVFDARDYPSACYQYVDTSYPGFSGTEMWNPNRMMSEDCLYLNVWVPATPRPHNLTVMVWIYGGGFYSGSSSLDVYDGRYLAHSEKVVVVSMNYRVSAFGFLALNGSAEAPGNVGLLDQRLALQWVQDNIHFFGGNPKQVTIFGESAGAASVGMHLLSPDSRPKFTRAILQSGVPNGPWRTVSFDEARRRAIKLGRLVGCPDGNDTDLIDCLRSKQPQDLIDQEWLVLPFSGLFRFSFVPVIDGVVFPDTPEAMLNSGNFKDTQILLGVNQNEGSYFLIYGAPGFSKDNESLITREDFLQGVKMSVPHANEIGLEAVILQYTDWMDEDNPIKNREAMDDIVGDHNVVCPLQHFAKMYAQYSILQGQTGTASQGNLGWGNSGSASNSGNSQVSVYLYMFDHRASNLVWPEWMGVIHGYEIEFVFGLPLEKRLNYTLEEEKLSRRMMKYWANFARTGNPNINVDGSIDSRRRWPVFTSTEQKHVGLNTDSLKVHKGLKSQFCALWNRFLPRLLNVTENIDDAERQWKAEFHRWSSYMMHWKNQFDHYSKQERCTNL

Biological target: AChE (electric eel, EeAChE) (Electrophorus electricus, UniProt O42275)
Format: biochemical
Details: read-out: IC50 against AChE

## CC(C)Cc1ccc(C(C)C(=O)OCC[Si](C)(C)C)cc1 (stereo not shown) [Compound 10]
  IC50: 25.7 ± 4.9 µM
